Reference: ChEMBL document CHEMBL1641598, “Preparation, in vitro screening and molecular modelling of symmetrical 4-tert-butylpyridinium cholinesterase inhibitors--analogues of SAD-128” (2011)

Chains of the proteins cited; added tags and fusions are not shown. Residues count along the entry.
UniProt P22303, 32-614 limits assumed: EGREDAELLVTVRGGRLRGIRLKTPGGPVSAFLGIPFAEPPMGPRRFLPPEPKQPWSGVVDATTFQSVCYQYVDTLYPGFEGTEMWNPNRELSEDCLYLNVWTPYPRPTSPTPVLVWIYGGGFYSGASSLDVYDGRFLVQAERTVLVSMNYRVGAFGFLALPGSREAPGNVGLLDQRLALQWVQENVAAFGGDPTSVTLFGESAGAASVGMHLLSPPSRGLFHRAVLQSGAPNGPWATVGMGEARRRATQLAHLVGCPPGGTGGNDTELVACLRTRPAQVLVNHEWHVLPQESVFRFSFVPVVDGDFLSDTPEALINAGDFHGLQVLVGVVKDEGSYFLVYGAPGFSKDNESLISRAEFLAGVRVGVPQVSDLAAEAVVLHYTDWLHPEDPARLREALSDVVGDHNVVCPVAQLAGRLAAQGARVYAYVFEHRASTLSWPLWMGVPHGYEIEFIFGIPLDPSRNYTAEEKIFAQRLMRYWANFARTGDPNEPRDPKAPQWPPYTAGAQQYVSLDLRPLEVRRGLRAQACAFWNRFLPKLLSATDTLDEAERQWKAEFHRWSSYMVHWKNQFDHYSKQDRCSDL
UniProt P06276, 29-602 limits assumed: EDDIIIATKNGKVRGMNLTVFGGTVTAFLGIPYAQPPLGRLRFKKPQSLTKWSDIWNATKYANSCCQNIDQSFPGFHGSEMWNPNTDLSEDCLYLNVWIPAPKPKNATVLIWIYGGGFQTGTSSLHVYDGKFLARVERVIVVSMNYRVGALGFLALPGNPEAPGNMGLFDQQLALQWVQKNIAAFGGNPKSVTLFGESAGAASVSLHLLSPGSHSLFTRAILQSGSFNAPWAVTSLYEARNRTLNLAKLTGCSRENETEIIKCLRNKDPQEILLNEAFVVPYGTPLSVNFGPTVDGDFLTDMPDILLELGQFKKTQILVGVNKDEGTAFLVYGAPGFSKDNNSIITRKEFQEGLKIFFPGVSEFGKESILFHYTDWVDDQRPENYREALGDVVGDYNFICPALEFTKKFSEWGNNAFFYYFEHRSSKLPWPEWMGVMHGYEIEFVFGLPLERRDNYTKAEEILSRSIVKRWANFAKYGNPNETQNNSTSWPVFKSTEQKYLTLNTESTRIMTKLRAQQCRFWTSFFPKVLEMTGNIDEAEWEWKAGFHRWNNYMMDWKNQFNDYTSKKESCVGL
UniProt P06276, whole entry, looked up: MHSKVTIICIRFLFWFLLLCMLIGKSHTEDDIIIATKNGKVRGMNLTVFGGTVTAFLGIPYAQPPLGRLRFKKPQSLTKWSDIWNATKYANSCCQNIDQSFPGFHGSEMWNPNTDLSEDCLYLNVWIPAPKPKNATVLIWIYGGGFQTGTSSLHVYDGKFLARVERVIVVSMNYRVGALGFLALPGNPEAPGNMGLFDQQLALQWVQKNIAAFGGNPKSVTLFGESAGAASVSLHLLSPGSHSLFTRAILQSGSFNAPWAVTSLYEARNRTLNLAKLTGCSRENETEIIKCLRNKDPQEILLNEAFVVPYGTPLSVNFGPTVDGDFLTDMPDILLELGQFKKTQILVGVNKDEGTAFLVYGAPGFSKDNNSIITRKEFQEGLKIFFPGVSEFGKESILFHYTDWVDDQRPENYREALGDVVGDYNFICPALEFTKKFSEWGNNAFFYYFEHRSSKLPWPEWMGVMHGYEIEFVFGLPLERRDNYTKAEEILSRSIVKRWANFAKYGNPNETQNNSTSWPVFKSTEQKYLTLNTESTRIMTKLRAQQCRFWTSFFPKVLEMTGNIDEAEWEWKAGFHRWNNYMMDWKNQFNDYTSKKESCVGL

Assays:
Acetylcholinesterase [1] = target: T1, Acetylcholinesterase (Homo sapiens, UniProt P22303); experiment: Inhibition of human recombinant AChE
Cholinesterase [2] = target: Cholinesterase (Homo sapiens, UniProt P06276); experiment: Inhibition of human recombinant BChE
[3] = Inhibition of mAChR
Cholinesterase [4] = target: Cholinesterase (UniProt P06276+P22303); experiment: Inhibition of human recombinant AChE assessed as dissociation constant for enzyme-inhibitor-substrate complex by Lineweaver-Burk plot
[5] = Inhibition of nAChR
Acetylcholinesterase [6] = target: T1, Acetylcholinesterase; experiment: Inhibition of human recombinant AChE assessed as dissociation constant for enzyme-inhibitor complex by Lineweaver-Burk plot

Row | Compound | IC50 (Acetylcholinesterase [1]) | IC50 (Cholinesterase [2]) | other results
1 | CC(C)(C)c1cc[n+](C[n+]2ccc(C(C)(C)C)cc2)cc1 | 20000 nM | 34000 nM | 
2 | CC(C)(C)c1cc[n+](CCCCC[n+]2ccc(C(C)(C)C)cc2)cc1 | 24000 nM | 5100 nM | 
3 | CC(C)(C)c1cc[n+](CCCCCC[n+]2ccc(C(C)(C)C)cc2)cc1 | 32 nM | 600 nM | 
4 | CC(C)(C)c1cc[n+](CCCCCCCC[n+]2ccc(C(C)(C)C)cc2)cc1 |  | 16 nM | IC50 [3]: 37000 nM; Ki (Cholinesterase [4]): 200 nM; IC50 [5]: 30000 nM
5 | CC(C)(C)c1cc[n+](CC[n+]2ccc(C(C)(C)C)cc2)cc1 | 17000 nM | 20000 nM | 
6 | CC(C)(C)c1cc[n+](CCCCCCCCCCCC[n+]2ccc(C(C)(C)C)cc2)cc1 | 7 nM | 19 nM | 
7 | CC(C)(C)c1cc[n+](CCCC[n+]2ccc(C(C)(C)C)cc2)cc1 | 3700 nM | 5500 nM | 
8 | CC(C)(C)c1cc[n+](C/C=C\C[n+]2ccc(C(C)(C)C)cc2)cc1 | 2000 nM | 4400 nM | 
9 | CC(C)(C)c1cc[n+](CCCCCCCCCCC[n+]2ccc(C(C)(C)C)cc2)cc1 | 26 nM | 110 nM | 
10 | CC(C)(C)c1cc[n+](CCOCC[n+]2ccc(C(C)(C)C)cc2)cc1 | 19000 nM |  | 
11 | CC(C)(C)c1cc[n+](CCCCCCCCCC[n+]2ccc(C(C)(C)C)cc2)cc1 | 12 nM | 60 nM | 
12 | CC(C)(C)c1cc[n+](C/C=C/C[n+]2ccc(C(C)(C)C)cc2)cc1 | 3400 nM | 19000 nM | 
13 | CC(C)(C)c1cc[n+](CCCCCCCCC[n+]2ccc(C(C)(C)C)cc2)cc1 | 37 nM | 150 nM | 
14 | CCN(CC)C(C)CN1c2ccccc2Sc2ccccc21 (stereo unspecified) |  | 1600 nM | 
15 | CC(C)(C)c1cc[n+](/C=C2\C=CC3=CC/C(=C\[n+]4ccc(C(C)(C)C)cc4)C=C3C2)cc1 | 24 nM | 120 nM | Ki (Acetylcholinesterase [6]): 100 nM
16 | CC(C)(C)c1cc[n+](CCC[n+]2ccc(C(C)(C)C)cc2)cc1 | 14000 nM | 53000 nM | 
17 | CC(C)(C)c1cc[n+](Cc2ccccc2C[n+]2ccc(C(C)(C)C)cc2)cc1 | 10000 nM | 2400 nM | 
18 | CC(C)(C)c1cc[n+](Cc2ccc(C[n+]3ccc(C(C)(C)C)cc3)cc2)cc1 | 300 nM | 1300 nM | 
19 | CC(C)(C)c1cc[n+](Cc2cccc(C[n+]3ccc(C(C)(C)C)cc3)c2)cc1 | 700 nM | 1900 nM | 
20 | CC(C)(C)c1cc[n+](CCCCCCC[n+]2ccc(C(C)(C)C)cc2)cc1 | 16 nM | 700 nM | 
